From PubChem BioAssay AID2260 (Sanford-Burnham Center for Chemical Genomics, 2010)
The source made the active and inactive calls. How the calls were made is not given here.

System: MCF-7/NOD2 cells, MDP-induced IL-8 secretion
Assay: inhibition of NOD2-driven IL-8 release, SAR follow-up, MCF-7/NOD2 cells, MDP stimulus (AID 2260)

Cc1ccc(S(=O)(=O)n2cnc3ccccc32)cc1
IC50: inactive: > 5 µM
